# Tests used:
# Amino acid sequences for entries named in this document (tags omitted).
# UniProt Q13546, whole entry: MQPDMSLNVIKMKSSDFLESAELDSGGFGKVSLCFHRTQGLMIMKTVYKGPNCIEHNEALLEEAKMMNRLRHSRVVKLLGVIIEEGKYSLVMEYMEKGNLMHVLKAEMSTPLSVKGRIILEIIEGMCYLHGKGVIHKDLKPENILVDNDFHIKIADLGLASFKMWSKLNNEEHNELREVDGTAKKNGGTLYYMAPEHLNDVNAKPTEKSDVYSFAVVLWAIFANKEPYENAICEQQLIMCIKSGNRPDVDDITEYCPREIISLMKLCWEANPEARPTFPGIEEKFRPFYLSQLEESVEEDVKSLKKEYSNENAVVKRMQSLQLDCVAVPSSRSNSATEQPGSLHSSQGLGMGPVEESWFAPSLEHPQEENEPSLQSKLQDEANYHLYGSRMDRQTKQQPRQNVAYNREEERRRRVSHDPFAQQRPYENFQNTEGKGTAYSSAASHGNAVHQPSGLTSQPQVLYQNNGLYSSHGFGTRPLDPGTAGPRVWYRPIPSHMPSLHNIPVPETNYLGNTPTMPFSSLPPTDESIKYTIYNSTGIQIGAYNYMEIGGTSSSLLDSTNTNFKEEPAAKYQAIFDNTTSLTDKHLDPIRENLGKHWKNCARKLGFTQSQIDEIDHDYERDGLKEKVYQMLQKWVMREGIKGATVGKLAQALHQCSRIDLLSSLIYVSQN
# [1] = molecular target: RIPK1 (Homo sapiens (Human), UniProt Q13546); test: In vitro kinase assay (Eurofins Kinase Profiler), IC50; conditions: read-out: RIPK 1 (IC50), 0.001-10 μM
# [2] = test system: HT-29 cells; test: Protection against programmed necrosis of HT-29 cells (TNF α/Smac mimetic/Z-VAD-FMK, CCK8); conditions: read-out: HT-29 (EC50), TNF α/Smac mimetic/Z-VAD-FMK induced 24 h
# Method: In vitro protection against programmed necrosis of HT-29 cells was conducted by ourselves.
# DMEM medium was purchased from Gibco Inc., penicillin and streptomycin were purchased from HyClone Inc., TNF α was purchased from PeproTech Inc., Smac mimetic and Z-VAD-FMK were purchased from Selleck Inc., CCK8 was purchased from Medchem Express Inc.
# HT-29 cells (colon cancer cells) were cultured in DMEM+10% FBS+Penicillin/Streptomycin medium. During the experiments, HT-29 cells in logarithmic growth phase were harvested, seeded in a 96-well plate at specific numbers per well (typically 8×10^3 cells/well of adherent cells) and cultured overnight in a 37° C., 5% CO2 cell culture incubator. The next day, the compounds to be tested were diluted with culture medium to the corresponding concentrations and added into the corresponding wells of a 96-well plate, with 3 replicate wells for each sample, and a Vehicle control group and a blank Control group containing only culture medium were set at the same time. […] The absorbance was measured at 495 nm wavelength using a microplate reader, and the protection rate of the drug on the cells necrosis was calculated according to the following formula:
# Protection rate of cell necrosis=[(X−C0)/(C−C0)]×100%
# Wherein, C, C0, and X represent the mean absorbance values of the Vehicle control group, Blank control group and Drug treatment group, respectively. […]
smiles,measurement,setting,value
COC(=O)Nc1nc2cc(-c3ccc4c(c3)c(C(=O)N[C@@H](C)c3cccc(F)c3)cn4C)ccn2n1,IC50,[1],10 to 100 nM
same,EC50,[2],< 1 nM

# Source: patent publication US20230365546A1, “5-SUBSTITUTED INDOLE 3-AMIDE DERIVATIVES, PREPARATION METHOD AND USE THEREOF” (ORIGIANT PHARMACEUTICAL CO., LTD, priority 2020, published 2023)
